Assay: Therapeutic index, ratio of CC50 for human C8166 cells to EC50 for HIV-1 3B infected in human C8166 cells
Assay type: cell-based
Details: HIV-1 3B infected C8166 cells, read-out: Ratio CC50/EC50

SMILES: O=c1cc(-c2ccccc2)oc2cc(O)c(O)c(O)c12 [BAICALEIN]
- selectivity ratio: 18

Reference: ChEMBL document CHEMBL3286361, “Design and discovery of flavonoid-based HIV-1 integrase inhibitors targeting both the active site and the interaction with LEDGF/p75” (Bioorg Med Chem, 2014)
